Measured values taken from PMC10601436 (ACS Omega, 2023).

Amino acid sequences for entries named in this document (tags omitted).
UniProt P27487, whole entry: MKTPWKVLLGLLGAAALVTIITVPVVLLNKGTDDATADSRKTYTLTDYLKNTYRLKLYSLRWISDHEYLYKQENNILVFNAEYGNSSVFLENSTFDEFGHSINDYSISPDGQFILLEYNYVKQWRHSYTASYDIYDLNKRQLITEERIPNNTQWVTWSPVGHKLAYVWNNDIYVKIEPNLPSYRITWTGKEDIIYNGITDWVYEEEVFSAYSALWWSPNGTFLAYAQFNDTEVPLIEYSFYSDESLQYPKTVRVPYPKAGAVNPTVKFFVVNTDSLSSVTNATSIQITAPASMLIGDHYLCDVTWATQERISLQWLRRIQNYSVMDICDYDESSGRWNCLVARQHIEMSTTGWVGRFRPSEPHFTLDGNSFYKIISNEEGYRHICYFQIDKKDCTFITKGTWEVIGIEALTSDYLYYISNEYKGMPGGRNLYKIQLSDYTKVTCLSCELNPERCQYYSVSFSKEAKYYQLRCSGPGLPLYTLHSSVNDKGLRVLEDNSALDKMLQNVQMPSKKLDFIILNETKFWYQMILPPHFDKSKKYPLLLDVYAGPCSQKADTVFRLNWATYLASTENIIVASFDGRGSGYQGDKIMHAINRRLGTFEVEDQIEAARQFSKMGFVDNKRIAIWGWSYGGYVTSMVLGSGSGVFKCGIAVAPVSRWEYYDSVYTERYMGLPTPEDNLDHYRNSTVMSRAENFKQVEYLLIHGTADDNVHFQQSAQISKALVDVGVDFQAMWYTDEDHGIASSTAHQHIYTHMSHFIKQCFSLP

Target: hDPP-IV (Homo sapiens, UniProt P27487)
Assay: DPP-IV inhibitory assay
Format: biochemical

IC50: 366 µM
SMILES: CC(C)[C@H](NC(=O)[C@@H](N)Cc1c[nH]c2ccccc12)C(=O)N[C@@H](CCC(N)=O)C(=O)O [WVQ]
